This is an account of results in US7931880B2, “Production of silver sulfate grains using inorganic additives” (Eastman Kodak Company, priority 2007, dated 2011).

For data set [1] the following is noted: relatively low temperature (about 170° C.) melt of a polyolefin.
For data set [2] the following is noted: cited from earlier work.

On to silver laurylsulphate, for which the “discoloration in polymer melt” value in data set [1] is “extremely discolored”.

On to sodium chlorite [NaClO2], for which, in data set [2] (silver salt of the additive anion), the “Additive Silver Solubility” value is reported as 0.28 g/100 mL. Further, the “Additive Sulfate Solubility” value in data set [2] (sulfate salt of the additive cation) is 7.7 g/100 mL.
